Literature values in US20160243040A1, “Pharmaceutical Composition with Antiinflammatory Agents and Production Process” (LABORATORIO RAAM DE SAHUAYO, S.A. DE C.V., priority 2013, published 2016).

average concentration in synovial fluid relative to plasma (225 mg of aceclofenac daily for 6 days): half that of plasma | share of administered dose as metabolites diclofenac and 4-hydroxy-diclofenac (other metabolites besides 4-hydroxi-aceclofenac): 5%
SMILES: O=C(O)COC(=O)Cc1ccccc1Nc1c(Cl)cccc1Cl [aceclofenac, Aceclofenac]
